Sampled rows, rich in hits. Any-hit rate of the full collection: about 0.7%.
HCMV UL50-53 inh = inhibitors of HCMV UL50-UL53 nuclear egress complex interaction. HTRF UL50-UL53 interaction, normalized percent inhibition. inhibition, % (no concentration beside the values). 190,000 compounds, 0.15% hits; in the data active means inhibition above about 27%, passing the limit was not always enough
GIV Gai3 FP = inhibitors of GIV GBA-motif binding to rat Galpha-i3; Galpha-i3/FITC-GIV peptide fluorescence polarization, 90 min; stronger effect = lower value; scaled: aluminum fluoride 0%, vehicle 100%; P08753; hit rate 0.42% among 210,000; percent of control (FP), % (concentration not given with the values);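 active = replicate mean at 85% of control or lower, very high polarization wells dropped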;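 note: wells of about 15 µL received 100 nL stock; the first replicate is given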
Sa growth 42C = S. aureus growth inhibition; relative growth, % (concentration not given with the values); 170,000 compounds, 0.53% hits; S. aureus RN4220 growth, OD600, 20 h, 42 °C; active compounds read low;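 active means relative growth at most 50% at the other temperature and 20+ points below 30 °C, or under 10% at both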
An asterisk follows results filed as active.

Screening CCCN(CCC)S(=O)(=O)c1ccc(C(=O)Nc2nnc(-c3cccc(OC)c3)o2)cc1 returned HCMV UL50-53 inh 35.9, GIV Gai3 FP 101.9 and Sa growth 42C 0.1*.
CC(=O)Nc1nnc(-c2cccs2)o1 was read as HCMV UL50-53 inh 1.1.
Screening CCN1CCN(C(=O)c2cc[n+]([O-])cc2)CC1 returned HCMV UL50-53 inh 7.9 and Sa growth 42C 97.1.
For CCOc1ccc(Br)cc1C(=O)N/N=C/c1ccco1 the results were HCMV UL50-53 inh -65.6, GIV Gai3 FP 99.3 and Sa growth 42C 80.1.
O=C(CCc1nc(CSc2nnc(-c3ccccc3)o2)no1)Nc1ccccc1 was read as GIV Gai3 FP 100.1.
Screening O=C(O)c1ccc(-n2cccn2)cc1 returned HCMV UL50-53 inh 10.5 and Sa growth 42C 106.7.
For COc1cc(NC(C)=O)cc(OC)c1OC the results were HCMV UL50-53 inh -13.8 and Sa growth 42C 90.7.
O=C(NCc1ccc2c(c1)OCO2)c1nnc(-c2ccc(S(=O)(=O)N3CCCC3)cc2)o1 was read as GIV Gai3 FP 98.1.
COCC(C)NC(=O)c1cnc2sc3c(n2c1=O)CCCC3 (stereo not drawn) was read as HCMV UL50-53 inh -17.7 and GIV Gai3 FP 102.6.
Screening Cc1ccc2c(c1)-c1c(sn(-c3ccc(Br)cc3)c1=S)C(C)(C)N2Cc1ccccc1 returned GIV Gai3 FP 110.1.
For CCC(=O)N1CCCc2cc(S(=O)(=O)N3CCC(C)CC3)ccc21 the results were HCMV UL50-53 inh -8.4 and GIV Gai3 FP 93.5.
For COc1ccccc1-c1noc(CN2CCOC2=O)n1 the results were HCMV UL50-53 inh -8.9.
Screening CN(CC1CCCO1)S(=O)(=O)c1ccc(C(=O)Nc2nnc(-c3ccccc3)o2)cc1 (stereo not drawn) returned HCMV UL50-53 inh -30.2, GIV Gai3 FP 97.3 and Sa growth 42C -0.1*.
`CN(CC1CCCO1)S(=O)(=O)c1ccc(C(=O)Nc2nc(-c3cccnc3)cs2)cc1` (stereo not drawn) gave GIV Gai3 FP 99.7.
COC(=O)[C@@H]1CC(=O)O[C@H](C)C/C=C/C=C/[C@H](O)[C@H](C)C[C@H](CC=O)[C@H](OC2O[C@H](C)[C@@H](OC3C[C@@](C)(O)[C@@H](OC(=O)CC(C)C)[C@H](C)O3)[C@H](N(C)C)[C@H]2O)[C@H]1OC (stereo partly drawn) was read as HCMV UL50-53 inh -53.1 and Sa growth 42C -0.6*.
`CO[C@@]12[C@@H]3NC3CN1C1=C(C(=O)C(N)=C(C)C1=O)[C@@H]2COC(N)=O` (stereo partly drawn) gave HCMV UL50-53 inh -103.9 and Sa growth 42C 0.2*.
`Brc1cc2c(cc1CSc1ncccn1)OCCO2` gave HCMV UL50-53 inh 0.8 and Sa growth 42C 101.1.
Screening Cc1nc2cc3ccccc3cc2c(=O)[nH]1 returned HCMV UL50-53 inh -67.9, GIV Gai3 FP 107.8 and Sa growth 42C 110.9.
Screening Cc1ccccc1Nc1cc2ccccc2c(=O)[nH]1 returned HCMV UL50-53 inh 57.9*, GIV Gai3 FP 87.6 and Sa growth 42C 86.3.
For CC(C)NC(=O)c1ccc(CS(=O)c2ccc(Cl)cc2)o1 (stereo not drawn) the results were HCMV UL50-53 inh -12.4, GIV Gai3 FP 112.1 and Sa growth 42C 103.6.

Some of these compounds in order of SMILES length, low to high.
Screening Cc1ccccc1Nc1cc2ccccc2c(=O)[nH]1 returned HCMV UL50-53 inh 57.9*, GIV Gai3 FP 87.6 and Sa growth 42C 86.3.
For CC(C)NC(=O)c1ccc(CS(=O)c2ccc(Cl)cc2)o1 (stereo not drawn) the results were HCMV UL50-53 inh -12.4, GIV Gai3 FP 112.1 and Sa growth 42C 103.6.
Screening CN(CC1CCCO1)S(=O)(=O)c1ccc(C(=O)Nc2nnc(-c3ccccc3)o2)cc1 (stereo not drawn) returned HCMV UL50-53 inh -30.2, GIV Gai3 FP 97.3 and Sa growth 42C -0.1*.
`CO[C@@]12[C@@H]3NC3CN1C1=C(C(=O)C(N)=C(C)C1=O)[C@@H]2COC(N)=O` (stereo partly drawn) gave HCMV UL50-53 inh -103.9 and Sa growth 42C 0.2*.
COC(=O)[C@@H]1CC(=O)O[C@H](C)C/C=C/C=C/[C@H](O)[C@H](C)C[C@H](CC=O)[C@H](OC2O[C@H](C)[C@@H](OC3C[C@@](C)(O)[C@@H](OC(=O)CC(C)C)[C@H](C)O3)[C@H](N(C)C)[C@H]2O)[C@H]1OC (stereo partly drawn) was read as HCMV UL50-53 inh -53.1 and Sa growth 42C -0.6*.

Later entries.
For NC1=CC(=O)CC(c2ccc(Cl)cc2)C1 (stereo not drawn) the results were HCMV UL50-53 inh -12.8 and GIV Gai3 FP 99.1.
`CCCn1nc(C(=O)N2CCc3ccccc32)c2ccccc2c1=O` gave HCMV UL50-53 inh -17.1 and Sa growth 42C 45.6*.
Cn1nc(C(=O)N2CCCc3ccccc32)c2ccccc2c1=O was read as HCMV UL50-53 inh -23.8, GIV Gai3 FP 101.4 and Sa growth 42C 93.8.
For Nc1ncc(-c2nc3ccccc3s2)c(N)n1 the results were HCMV UL50-53 inh -13.8, GIV Gai3 FP -55.4* and Sa growth 42C 117.3.
Screening Nc1ccc(-c2nc3ccccc3s2)cc1 returned HCMV UL50-53 inh -35.1 and Sa growth 42C 62.8.
`Nc1nnc(CCC2CCCCC2)s1` gave HCMV UL50-53 inh -12.3, GIV Gai3 FP 101.0 and Sa growth 42C 83.8.
`N#CC1=C(N)SC(N)=C(C#N)C1CCC1CCCCC1` gave HCMV UL50-53 inh -7.4, GIV Gai3 FP -94.8* and Sa growth 42C 44.5.
For CCOC(=O)c1c(C)csc1NC=C(C#N)C#N the results were HCMV UL50-53 inh -29.5, GIV Gai3 FP 102.6 and Sa growth 42C 73.2.
`Cn1c(Cc2ccccc2)nnc1SC1CCOC1=O` (stereo not drawn) gave HCMV UL50-53 inh -8.1 and Sa growth 42C 100.1.
CC1=C(C(=O)OCc2ccccc2)C2(O)C(=O)c3ccccc3C2(O)N1 (stereo not drawn) was read as HCMV UL50-53 inh 66.5* and Sa growth 42C 90.1.
Screening CCOC(=O)C1=C(C)NC2(O)c3ccccc3C(=O)C12O (stereo not drawn) returned GIV Gai3 FP 102.6.
For Cc1c(C)c(C)c(C#CCO)c(C)c1C the results were HCMV UL50-53 inh -26.5, GIV Gai3 FP 103.2 and Sa growth 42C 3.2*.
`CN(C)c1ncnc2c1cnn2-c1ccccc1` gave GIV Gai3 FP 94.3.
Screening COc1cccc(Cn2nnc3cc(C(=O)NCc4ccccc4Cl)ccc32)c1 returned GIV Gai3 FP 105.8.
`CCOC(=O)c1c(-c2ccccc2)oc2ccc(OC)cc12` gave HCMV UL50-53 inh -18.9.
Screening CCOC(=O)c1c(-c2ccccc2)oc2ccc(OCC)cc12 returned HCMV UL50-53 inh 1.4 and Sa growth 42C 48.0*.
COc1ccc(CCN2COc3c(cc4c(-c5ccccc5)cc(=O)oc4c3C)C2)cc1 was read as GIV Gai3 FP 109.7 and Sa growth 42C 95.2.
Screening CC1CCCC(NC(=O)CCCn2c(=O)c3cccn3c3cccnc32)C1C (stereo not drawn) returned HCMV UL50-53 inh -22.4, GIV Gai3 FP 103.1 and Sa growth 42C 92.3.
COc1ccccc1NC(=O)CC(O)(C(F)(F)F)C(F)(F)F was read as HCMV UL50-53 inh -2.9, GIV Gai3 FP 102.0 and Sa growth 42C 101.8.
`Cc1ccc(Cl)cc1NC(=O)CC(O)(C(F)(F)F)C(F)(F)F` gave HCMV UL50-53 inh -4.3, GIV Gai3 FP 101.7 and Sa growth 42C -0.8*.
For c1ccc2cc3c(Nc4ccc(N5CCOCC5)cc4)ccnc3cc2c1 the results were GIV Gai3 FP 93.3 and Sa growth 42C 98.9.
Screening CC(C)Nc1ccc(Nc2ccnc3cc4ccccc4cc23)cc1 returned GIV Gai3 FP 99.0 and Sa growth 42C -1.9*.
O=C1/C(=C/c2cccnc2)SC(=S)N1C1CCCC1 was read as HCMV UL50-53 inh -38.2, GIV Gai3 FP 104.5 and Sa growth 42C 7.2*.
For O=C1/C(=C/c2cccnc2)SC(=Nc2ccccc2)N1C1CCCCC1 the results were GIV Gai3 FP 108.5.
CCCCOC(=O)c1ccc(NC(=O)c2cc(=O)c3ccccc3o2)cc1 was read as HCMV UL50-53 inh -23.2, GIV Gai3 FP 100.6 and Sa growth 42C 97.2.
For CCCCOC(=O)c1cccc(NC(=O)c2cc3ccccc3o2)c1 the results were HCMV UL50-53 inh 138.2*, GIV Gai3 FP 99.5 and Sa growth 42C 94.3.
Cc1ccc(-c2ccc(CCC(=O)O)o2)cc1 was read as GIV Gai3 FP 103.0 and Sa growth 42C -1.4*.
For O=C(O)CCc1ccc(-c2cccs2)o1 the results were HCMV UL50-53 inh -7.6 and Sa growth 42C 93.8.

Screening results as filed in PubChem.
